Test: Selectivity ratio of EC50 for gamma-secretase to EC50 for mouse notch processing

Row | Ratio EC50 | SMILES
1 | 3.7 | CC[C@H](C)[C@@H](CO)NS(=O)(=O)c1ccc(Cl)cc1
2 | 9 | CC[C@H](C)[C@@H](CO)NS(=O)(=O)c1ccc(Br)cc1
